Results as given in publication PMC2957851 (ACS Chemical Neuroscience, 2010).

The chains behind the UniProt entries cited, without tags or fusion partners. Residues count along the entry.
UniProt P31424, 21-1203: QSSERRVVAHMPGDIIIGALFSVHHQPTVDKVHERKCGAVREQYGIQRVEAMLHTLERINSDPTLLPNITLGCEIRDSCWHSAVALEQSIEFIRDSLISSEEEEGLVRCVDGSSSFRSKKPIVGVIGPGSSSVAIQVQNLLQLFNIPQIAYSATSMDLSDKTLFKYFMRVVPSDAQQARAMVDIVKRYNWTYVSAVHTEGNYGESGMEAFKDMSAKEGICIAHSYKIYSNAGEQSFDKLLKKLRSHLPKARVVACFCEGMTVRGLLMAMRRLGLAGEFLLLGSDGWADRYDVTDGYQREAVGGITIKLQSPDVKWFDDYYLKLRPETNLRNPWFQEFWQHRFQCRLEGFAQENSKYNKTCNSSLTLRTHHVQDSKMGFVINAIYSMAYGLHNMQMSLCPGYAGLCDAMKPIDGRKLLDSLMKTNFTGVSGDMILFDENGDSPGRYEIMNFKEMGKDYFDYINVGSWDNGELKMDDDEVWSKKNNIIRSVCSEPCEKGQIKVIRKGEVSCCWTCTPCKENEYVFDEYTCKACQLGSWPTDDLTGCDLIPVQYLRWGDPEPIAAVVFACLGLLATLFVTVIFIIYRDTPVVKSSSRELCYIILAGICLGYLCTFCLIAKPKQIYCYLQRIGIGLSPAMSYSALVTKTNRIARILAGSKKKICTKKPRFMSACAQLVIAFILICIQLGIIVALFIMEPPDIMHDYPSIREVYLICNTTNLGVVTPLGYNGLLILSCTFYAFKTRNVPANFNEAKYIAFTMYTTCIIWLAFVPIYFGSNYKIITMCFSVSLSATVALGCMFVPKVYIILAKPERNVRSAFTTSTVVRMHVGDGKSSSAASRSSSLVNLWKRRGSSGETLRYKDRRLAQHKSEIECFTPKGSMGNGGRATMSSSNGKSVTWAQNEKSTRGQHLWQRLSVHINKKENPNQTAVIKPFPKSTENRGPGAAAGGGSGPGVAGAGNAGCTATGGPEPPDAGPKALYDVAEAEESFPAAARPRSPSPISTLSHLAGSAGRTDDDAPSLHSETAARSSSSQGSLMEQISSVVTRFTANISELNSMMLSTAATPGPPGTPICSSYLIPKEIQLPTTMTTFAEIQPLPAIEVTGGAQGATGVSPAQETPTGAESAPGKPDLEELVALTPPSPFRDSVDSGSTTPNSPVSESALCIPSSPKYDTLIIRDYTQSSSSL

Target: MPEP site on mGlu5 (Rattus norvegicus, UniProt P31424)
Experiment: [3H]methoxyPEPy radioligand binding, membranes of rat mGlu5 HEK293 cells

## Cc1cccc(C#Cc2ccccc2)n1 [MPEP, 2-methyl-6(phenylethynyl)pyridine, reference compound]
  Ki: 35 ± 10.4 nM
